System: human TMXR MCF7 cells
Assay: TMXR MCF7 mammary fat pad xenograft in NSG mice
Format: in vivo
Details: TMXR MCF7, oral gavage 5 days on/2 days off; MPT 35 mg/kg, TMX 4.2 mg/kg, CPP 3 mg/kg

CC/C(=C(\c1ccccc1)c1ccc(OCCN(C)C)cc1)c1ccccc1 [TMX, tamoxifen]
tumor growth: Tumors grew rapidly

Source: patent US20180171288A1, “METHODS OF TREATING CANCER” (THE UNIVERSITY OF ROCHESTER, priority 2016, published 2018)
